Data on two compounds can be found in ChEMBL document CHEMBL4145457, “Design, synthesis and biological evaluation of novel pyridine-thiazolidinone derivatives as anticancer agents: Targeting human carbonic anhydrase IX” (Eur J Med Chem, 2018).

The species named for the assay is Homo sapiens. The experiment in a line: Selectivity ratio of IC50 for human carbonic anhydrase 2 to IC50 for carbonic anhydrase 9.

With `O=C1/C(=C\c2ccc([N+](=O)[O-])cc2)S/C(=N/c2ccccc2)N1Cc1ccncc1`, the Ratio IC50 turned out to be 9.

As for `O=C1/C(=C\c2ccc(O)c(O)c2)S/C(=N/c2ccccc2)N1Cc1ccncc1`, the Ratio IC50 was 14.
